Molecules are shown by their SMILES. This is a selection; strong and weak results do not stand in their true shares. Records with an inconclusive call do not appear. The source made the active and inactive calls. The call rests on the fitted dose curve; in most records, active means well fitted inhibition curve with a large enough effect; inconclusive means small, poorly fitted or top-dose-only effect; inactive means no such curve, though single readings can be large or run the other way.
On the % scale 0 is the no-effect control and ±100 the full control effect; potency means the concentration at half of the fitted maximal effect.

Protein sequences, listed by entry. Tags and fused reporters are not part of them.
UniProt P43220, whole entry: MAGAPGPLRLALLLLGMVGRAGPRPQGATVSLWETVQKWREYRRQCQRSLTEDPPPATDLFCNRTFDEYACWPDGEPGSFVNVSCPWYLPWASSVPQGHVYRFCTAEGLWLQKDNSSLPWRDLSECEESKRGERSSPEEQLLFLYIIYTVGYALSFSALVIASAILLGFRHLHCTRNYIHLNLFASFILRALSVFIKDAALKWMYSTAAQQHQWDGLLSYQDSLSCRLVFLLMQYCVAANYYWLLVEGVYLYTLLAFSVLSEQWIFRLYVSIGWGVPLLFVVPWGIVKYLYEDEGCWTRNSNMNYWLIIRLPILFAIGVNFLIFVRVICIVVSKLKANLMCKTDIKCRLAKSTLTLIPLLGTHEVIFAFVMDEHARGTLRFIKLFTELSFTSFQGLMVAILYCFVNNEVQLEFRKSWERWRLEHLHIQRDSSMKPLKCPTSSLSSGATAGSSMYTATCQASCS

For the experiment, the target named is Glucagon-like peptide 1 receptor (Homo sapiens) (UniProt P43220). The experiment in a line: qHTS of GLP-1 Receptor Inverse Agonists (Inhibition Mode). Further: nearly all actives have a fitted effect of over 55% in size. To be noted: HEK293 GLP-1R CRE-luciferase, luminescence, 24 h, GLP-1R form is constitutively active; series mostly up to 38.3 µM; activity change, negative = inhibition: at the top concentration. (In qHTS, concentration-response curves come from the screen itself.)
Consider `O=[N+]([O-])c1cc([N+](=O)[O-])c(Nc2ccccn2)c([N+](=O)[O-])c1`, for which the “activity change, negative = inhibition” value is inactive: 13.6%.

In the case of `Cc1c(NP(C)(=O)Oc2ccc(C(C)C)cc2)c(=O)n(-c2ccccc2)n1C` (stereo not drawn), the “activity change, negative = inhibition” value was inactive: -21.5%. The same measure, in the same setting: as for `CP(=O)(Nc1ccccn1)Oc1ccccc1` (stereo not drawn), the figure is inactive: 13%. The same measure, in the same setting: as for `COc1ccccc1OP(C)(=O)Nc1ccc(C)cc1C` (stereo not drawn), the figure is inactive: -24.3%; as for `CCc1ccc(OP(C)(=O)O)cc1`, inactive: 21.3%. On the same count and under the same terms, as for `COc1ccc(OP(C)(=O)Nc2ccccn2)cc1` (stereo not drawn), the figure is inactive: -0.635%; as for `CN(C)CCOC(=O)C(O)(c1ccccc1)C1CCCC1` (stereo not drawn), inactive: 0.105%.

For `CP(=O)(OCCOc1ccccc1)OCCOc1ccccc1`, the “activity change, negative = inhibition” value was inactive: -24.7%. The same measure, in the same setting: the value for `COc1ccc(OP(C)(=O)Nc2ccccc2Br)cc1` (stereo not drawn) was inactive: -5.65%.

For `Nc1ccc2c(ccc3cccnc32)n1.O=[N+]([O-])c1cc([N+](=O)[O-])c(O)c([N+](=O)[O-])c1`, the “activity change, negative = inhibition” value is inactive: 53.3%.

Take `CCOC(=O)c1ccc(NP(C)(=O)Oc2ccc(Cl)cc2)cc1` (stereo not drawn): the “activity change, negative = inhibition” value was inactive: -26.2%. Still for that read-out and setting: as for `CP(=O)(OC12CC3CC(CC(C3)C1)C2)OC12CC3CC(CC(C3)C1)C2`, the figure is inactive: 0%; as for `CC(C)(C)c1ccc(OP(C)(=O)O)cc1`, inactive: 0%; as for `COc1ccccc1OP(C)(=O)Nc1ccccc1Br` (stereo not drawn), inactive: -25.1% [at 7.66 µM]. Same read-out and setting: the value for `CP(=O)(Nc1ccc(Cl)cc1)Oc1ccc(F)cc1` (stereo not drawn) was inactive: -25.5%; that for `CN(C)C(=O)c1c([N+](=O)[O-])cc([N+](=O)[O-])cc1[N+](=O)[O-]` was inactive: 17.5%. On the same count and under the same terms, as for `COc1ccccc1OP(C)(=O)Nc1c(C)n(C)n(-c2ccccc2)c1=O` (stereo not drawn), the figure is inactive: -9.33%. For the molecule `O=C(OCCCN1CCCC1)C(O)(c1ccccc1)C1CCCCC1` (stereo not drawn), the Potency was active: 10 µM. `CP(=O)(Oc1ccccc1)N1CCOC1=O` (stereo not drawn): the “activity change, negative = inhibition” value is inactive: 17.9%. On the same count and under the same terms, the value for `CCc1ccc(OP(C)(=O)Nc2cccnc2)cc1` (stereo not drawn) was inactive: -2.73% [at 0.307 µM].

Turning to `CP(=O)(Nc1ccc2c(c1)OCCO2)Oc1ccccc1` (stereo not drawn), the “activity change, negative = inhibition” value was inactive: -6.96%. Same read-out and setting: as for `Cc1ccccc1NP(C)(=O)Nc1ccccc1C`, the figure is inactive: -18.7%.

As for `O=[N+]([O-])c1cc([N+](=O)[O-])c(C(F)(F)F)c([N+](=O)[O-])c1O`, the “activity change, negative = inhibition” value is inactive: -25.7%.

For `CP(=O)(Nc1ccc(SC(F)(F)F)cc1)Oc1ccc(F)cc1` (stereo not drawn), the Potency was active: 10 µM. Regarding `CCOP(C)(=S)SCC(=O)NC(C)(CC)C(=O)O` (stereo not drawn), the “activity change, negative = inhibition” value was inactive: 2.44%. Still for that read-out and setting: as for `O=[N+]([O-])c1ccc(OP2(=O)COCCO2)cc1` (stereo not drawn), the figure is inactive: -14.8%; as for `Cc1c(C(c2ccc3c(c2)OCO3)c2c(C)n(C)n(-c3ccccc3)c2=O)c(=O)n(-c2ccccc2)n1C.O=[N+]([O-])c1cc([N+](=O)[O-])c(O)c([N+](=O)[O-])c1`, inactive: 8.34%. Consider `COc1ccc(OP(C)(=O)Nc2cccc(Br)c2)cc1` (stereo not drawn), for which the “activity change, negative = inhibition” value was inactive: -9.17%.

In the case of `COc1ccc(NP(C)(=O)Oc2ccccc2OC)cc1` (stereo not drawn), the “activity change, negative = inhibition” value is inactive: -7.28%.

On to `Cc1c([N+](=O)[O-])cc([N+](=O)[O-])c(Br)c1[N+](=O)[O-]`, for which the “activity change, negative = inhibition” value is inactive: -19.2%. Still for that read-out and setting: the value for `CP(=O)(Nc1ccccc1)Oc1ccc(F)cc1` (stereo not drawn) was inactive: -6.24%. The same measure, in the same setting: the value for `CCOC(=O)c1ccc(NP(C)(=O)Oc2ccc(F)cc2)cc1` (stereo not drawn) was inactive: -0.182%.

For `CP(=O)(Nc1ccccc1F)Oc1ccccc1` (stereo not drawn), the “activity change, negative = inhibition” value was inactive: 10.2%. Same read-out and setting: as for `Cc1cc(C)cc(OP(C)(=O)Nc2ccccn2)c1` (stereo not drawn), the figure is inactive: 7.88%.

With `Cc1cc(C)cc(OP(C)(=O)Nc2ccc(C)cc2C)c1` (stereo not drawn), the “activity change, negative = inhibition” value was inactive: 0%. On the same count and under the same terms, the value for `CC1=NCCc2c1[nH]c1ccccc21.O=[N+]([O-])c1cc([N+](=O)[O-])c(O)c([N+](=O)[O-])c1` was inactive: -7.76%; that for `CN1CCCCC1COC(=O)C1(O)c2ccccc2CCc2ccccc21` (stereo not drawn) was inactive: -59%. On the same count and under the same terms, the value for `COc1ccccc1OP(C)(=O)Nc1c(C)cccc1C` (stereo not drawn) was inactive: -16.3%; that for `O=[N+]([O-])c1cc([N+](=O)[O-])c(Nc2nnnn2CCO)c([N+](=O)[O-])c1` was inactive: -6.78%; that for `CC1=C2N=C(C=C3N=C(C(C)=C4[N-][C@@](C)([C@@H]5N=C1[C@](C)(CCC(=O)NC[C@@H](C)OP(=O)([O-])O[C@H]1[C@@H](O)[C@@H](n6cnc7cc(C)c(C)cc76)O[C@@H]1CO)[C@H]5CC(N)=O)[C@@](C)(CC(N)=O)[C@@H]4CCC(N)=O)[C@@](C)(CC(N)=O)[C@@H]3CCC(N)=O)C(C)(C)[C@@H]2CCC(N)=O.[C-]#N.[Co+3]` was inactive: 5.66%. Same read-out and setting: the value for `O=[N+]([O-])c1cc([N+](=O)[O-])c(-c2cnn(-c3ccccc3)c2)c([N+](=O)[O-])c1` was inactive: 6.26%; that for `Cc1nc2ccc3ccccc3c2s1.O=[N+]([O-])c1cc([N+](=O)[O-])c(O)c([N+](=O)[O-])c1` was inactive: 5.23%; that for `O=[N+]([O-])c1cc([N+](=O)[O-])c(-n2nnc3ccccc32)c([N+](=O)[O-])c1` was inactive: -3.58%. As to `CN(Cc1cccnc1)C(=O)COc1ccc(Cl)c(Cl)c1.O=[N+]([O-])c1cc([N+](=O)[O-])c(O)c([N+](=O)[O-])c1`, the “activity change, negative = inhibition” value is inactive: 11.5%. As to `O=[N+]([O-])c1cc([N+](=O)[O-])c(O)c([N+](=O)[O-])c1.c1ccc(Oc2ccncc2)cc1`, the “activity change, negative = inhibition” value is inactive: -4.92%. Same read-out and setting: the value for `CCOC(=O)c1ccc(NP(C)(=O)Oc2ccc(OC)cc2)cc1` (stereo not drawn) was inactive: -1.12%; that for `CCOP(C)(=S)SCC(=O)NC(C)C(=O)O` (stereo not drawn) was inactive: 6.78%; that for `CP(=O)(Nc1ccccn1)Oc1ccc(Cl)cc1` (stereo not drawn) was inactive: 4.7%. Take `Cc1cccc(C)c1OP(C)(=O)Nc1ccc(SC(F)(F)F)cc1` (stereo not drawn): the “activity change, negative = inhibition” value was inactive: -23.2%. The same measure, in the same setting: the value for `CP(=O)(NC(=O)Nc1ccccc1)Oc1ccccc1` (stereo not drawn) was inactive: 8.51%; that for `CP(=S)(Nn1cnnc1)Oc1ccccc1` (stereo not drawn) was inactive: 0.39%. For `CP(=O)(Nc1ccccc1Br)Oc1ccccc1` (stereo not drawn), the “activity change, negative = inhibition” value was inactive: -6.04%.

Take `COc1ccccc1OP(C)(=O)Nc1ccccc1` (stereo not drawn): the “activity change, negative = inhibition” value was inactive: 10.2%.

Regarding `COc1ccccc1OP(C)(=O)Nc1ccc(C)cc1` (stereo not drawn), the “activity change, negative = inhibition” value is inactive: 5.65%.

As to `Cc1ccc(NP(C)(=O)Oc2ccccc2)c(C)c1` (stereo not drawn), the “activity change, negative = inhibition” value is inactive: -20%. On the same count and under the same terms, the value for `CCOC(=O)c1ccc(NP(C)(=O)Oc2ccccc2)cc1` (stereo not drawn) was inactive: 13.8%.

Take `Cc1cc(C)cc(OP(C)(N)=O)c1` (stereo not drawn): the “activity change, negative = inhibition” value was inactive: 6.56%.

With `COc1ccccc1OP(C)(=O)Nc1cc(Cl)ccc1C` (stereo not drawn), the “activity change, negative = inhibition” value was inactive: 5.5%. The same measure, in the same setting: as for `COc1ccc(OP(C)(=O)Nc2cccc(F)c2)cc1` (stereo not drawn), the figure is inactive: -13%; as for `O=[N+]([O-])c1cc([N+](=O)[O-])c(Nc2cccnc2)c([N+](=O)[O-])c1`, inactive: 20.5%. As for `CC(C)(C)c1ccc(OP(C)(=O)Nc2ccc(SC(F)(F)F)cc2)cc1` (stereo not drawn), the Potency is active: 4.47 µM. In the case of `Cc1cccc(C)c1OP(C)(N)=O` (stereo not drawn), the activity change, negative = inhibition was inactive: 0.543% [at 7.66 µM].

With `COc1ccccc1-c1ccccn1.O=[N+]([O-])c1cc([N+](=O)[O-])c(O)c([N+](=O)[O-])c1`, the “activity change, negative = inhibition” value was inactive: 5.6%.

The values above are taken from PubChem BioAssay AID624417 (National Center for Advancing Translational Sciences (NCATS), 2012).
